pIC50: −log10 of the molar value.
Biological target: Sodium channel protein type 9 subunit alpha (Homo sapiens, UniProt Q15858)
Assay: Compound effects were measured on a partially inactivated state of the sodium channel. Cells were clamped to a holding potential yielding 20 to 50% inactivation. To elicit sodium current, channels were activated by pulsing to -10 mV for 20 msec. This voltage protocol was repeated at a rate of 0.1 Hz throughout the experiment.
Assay type: cell-based, Sf9

Protein sequences, listed by entry. Tags and fused reporters are not part of them.
UniProt Q15858, whole entry: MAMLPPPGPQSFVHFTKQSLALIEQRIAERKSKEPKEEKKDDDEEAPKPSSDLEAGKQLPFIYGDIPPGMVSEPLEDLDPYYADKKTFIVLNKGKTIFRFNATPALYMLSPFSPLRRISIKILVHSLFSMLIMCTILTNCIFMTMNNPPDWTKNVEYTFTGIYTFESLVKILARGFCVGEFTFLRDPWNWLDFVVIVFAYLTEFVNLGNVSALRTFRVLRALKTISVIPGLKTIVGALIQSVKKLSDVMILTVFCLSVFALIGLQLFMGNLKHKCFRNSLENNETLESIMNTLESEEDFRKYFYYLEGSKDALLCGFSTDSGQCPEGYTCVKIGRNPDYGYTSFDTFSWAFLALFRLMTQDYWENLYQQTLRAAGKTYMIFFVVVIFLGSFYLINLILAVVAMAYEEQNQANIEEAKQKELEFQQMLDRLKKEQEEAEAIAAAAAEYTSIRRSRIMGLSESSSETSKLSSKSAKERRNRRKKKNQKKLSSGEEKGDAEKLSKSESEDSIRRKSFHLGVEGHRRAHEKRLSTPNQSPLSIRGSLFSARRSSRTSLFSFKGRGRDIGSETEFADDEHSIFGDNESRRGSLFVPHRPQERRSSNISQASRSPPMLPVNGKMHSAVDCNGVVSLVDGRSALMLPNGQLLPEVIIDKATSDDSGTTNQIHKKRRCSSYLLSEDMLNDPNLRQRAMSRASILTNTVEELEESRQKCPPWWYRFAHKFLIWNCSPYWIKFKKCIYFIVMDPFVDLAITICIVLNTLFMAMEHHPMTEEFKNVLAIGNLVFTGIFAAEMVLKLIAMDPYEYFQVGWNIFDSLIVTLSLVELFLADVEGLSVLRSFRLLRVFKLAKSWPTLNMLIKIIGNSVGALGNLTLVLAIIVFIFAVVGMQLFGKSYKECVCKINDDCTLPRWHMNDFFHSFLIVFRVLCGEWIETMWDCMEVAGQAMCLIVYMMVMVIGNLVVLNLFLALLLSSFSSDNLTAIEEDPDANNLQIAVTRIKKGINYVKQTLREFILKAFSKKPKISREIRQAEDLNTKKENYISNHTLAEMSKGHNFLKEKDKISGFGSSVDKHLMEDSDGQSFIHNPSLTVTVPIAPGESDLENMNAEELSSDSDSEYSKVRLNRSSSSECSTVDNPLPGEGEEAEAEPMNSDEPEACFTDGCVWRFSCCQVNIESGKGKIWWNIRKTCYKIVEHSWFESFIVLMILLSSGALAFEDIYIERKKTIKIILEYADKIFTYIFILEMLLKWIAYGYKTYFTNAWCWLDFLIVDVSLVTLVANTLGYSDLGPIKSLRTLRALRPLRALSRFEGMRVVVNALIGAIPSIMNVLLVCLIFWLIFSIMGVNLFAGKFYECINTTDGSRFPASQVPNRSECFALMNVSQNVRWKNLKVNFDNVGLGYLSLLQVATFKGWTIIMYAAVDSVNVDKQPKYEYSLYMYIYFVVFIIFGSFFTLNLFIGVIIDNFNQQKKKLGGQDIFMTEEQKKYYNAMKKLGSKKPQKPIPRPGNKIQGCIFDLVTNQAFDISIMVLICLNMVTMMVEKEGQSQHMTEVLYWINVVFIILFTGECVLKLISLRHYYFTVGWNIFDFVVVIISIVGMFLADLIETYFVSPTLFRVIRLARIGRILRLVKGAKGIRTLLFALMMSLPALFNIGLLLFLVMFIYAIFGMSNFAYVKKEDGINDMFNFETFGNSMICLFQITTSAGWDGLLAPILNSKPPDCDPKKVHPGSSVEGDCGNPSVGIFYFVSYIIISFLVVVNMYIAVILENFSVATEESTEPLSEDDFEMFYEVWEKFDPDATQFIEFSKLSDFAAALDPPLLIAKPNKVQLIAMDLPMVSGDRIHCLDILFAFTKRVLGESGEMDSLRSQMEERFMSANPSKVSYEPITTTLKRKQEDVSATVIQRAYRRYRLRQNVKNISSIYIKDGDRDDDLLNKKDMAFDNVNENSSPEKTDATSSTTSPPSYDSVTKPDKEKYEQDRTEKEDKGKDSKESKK

Q: COc1cc(-c2cccc(Cl)c2C)c(C)cc1-n1c(=O)ccc2cc(S(=O)(=O)Nc3ncccn3)ccc21 was tested. Which pIC50 did it give?
A: The pIC50 was 7.77.

Q: How did the pIC50 turn out when COc1cc(-c2ccc(Cl)c(C#N)c2)c(F)cc1-n1c(=O)ccc2cc(S(=O)(=O)Nc3cccnn3)ccc21 was run?
A: The pIC50 was 7.77.

From ChEMBL document CHEMBL3886193, “Bicyclic sulfonamide compounds as sodium channel inhibitors” (2015)
